One assay has as its target hA3/CHO (Homo sapiens (Human), UniProt P0DMS8). Put plainly: cell-based. How it is done: hA2a/CHO, hA2b/CHO, hA3/CHO and mA2a/CHO (Genscript) were plated at 5×10^3 cells/well into 384-well polystyrene plates at the day of experiment. Compounds were pre-incubated with cells for 30 min at 37° C., 5% CO2. Then 10 μM adenosine was added to the cells and incubated for 30 min at 37° C., 5% CO2. Detection reagent (CISBIO) was added and the plates were incubated for 60 min at room temperature. The signal was captured by Envision.

Amino acid sequences for entries named in this document (tags omitted). A change or cut given only in a name is not applied to a line headed by its entry.
UniProt P0DMS8, whole entry: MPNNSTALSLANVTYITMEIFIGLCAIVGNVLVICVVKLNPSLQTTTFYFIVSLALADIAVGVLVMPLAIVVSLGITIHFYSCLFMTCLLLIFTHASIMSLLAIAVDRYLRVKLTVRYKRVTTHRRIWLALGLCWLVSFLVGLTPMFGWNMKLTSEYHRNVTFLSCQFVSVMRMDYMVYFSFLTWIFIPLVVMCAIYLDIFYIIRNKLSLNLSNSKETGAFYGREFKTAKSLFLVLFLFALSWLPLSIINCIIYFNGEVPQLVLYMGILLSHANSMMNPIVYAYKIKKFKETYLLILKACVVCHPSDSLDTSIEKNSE
UniProt P29275: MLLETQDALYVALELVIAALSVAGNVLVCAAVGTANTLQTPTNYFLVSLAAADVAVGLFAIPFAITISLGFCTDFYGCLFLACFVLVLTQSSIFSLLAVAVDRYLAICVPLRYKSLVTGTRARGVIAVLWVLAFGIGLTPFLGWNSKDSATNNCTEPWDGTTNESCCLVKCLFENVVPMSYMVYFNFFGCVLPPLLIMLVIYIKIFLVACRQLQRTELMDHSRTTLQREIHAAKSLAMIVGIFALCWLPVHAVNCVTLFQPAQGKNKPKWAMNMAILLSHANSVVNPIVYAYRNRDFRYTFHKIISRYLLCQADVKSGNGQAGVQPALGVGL
UniProt Q60613, whole entry: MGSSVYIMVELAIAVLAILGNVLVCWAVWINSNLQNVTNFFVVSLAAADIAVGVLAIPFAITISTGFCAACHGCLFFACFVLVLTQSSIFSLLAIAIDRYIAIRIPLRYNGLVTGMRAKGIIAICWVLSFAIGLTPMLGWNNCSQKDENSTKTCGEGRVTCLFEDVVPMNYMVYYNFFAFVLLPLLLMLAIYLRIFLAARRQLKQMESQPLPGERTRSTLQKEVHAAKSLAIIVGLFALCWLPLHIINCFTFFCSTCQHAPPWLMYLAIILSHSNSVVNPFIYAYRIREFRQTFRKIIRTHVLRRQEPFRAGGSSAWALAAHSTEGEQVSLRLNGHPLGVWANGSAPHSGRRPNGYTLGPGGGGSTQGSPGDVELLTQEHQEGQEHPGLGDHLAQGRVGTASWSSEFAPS

A further assay concerns the target hA2a (Homo sapiens (Human), UniProt P29274). In words: Radioligand binding to hA2a membrane with [3H]-CGS21680. The note with it: read-out: Binding Affinity (IC50 nM) hA2a. The text has this:
The empty boxes in the tables below indicate data not collected yet.

Another assay addresses hA2b/CHO (Homo sapiens (Human), UniProt P29275). Put plainly: cAMP inhibition assay in hA2b/CHO cells, 10 μM adenosine.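 Note: cells exposed to compound 30 min at 37 °C, then stimulated with adenosine a further 30 min, cAMP read after 60 min at room temperature.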 It counts as cell-based. As to conditions: read-out: cAMP & FLIPR IC50 (nM) hA2b.
The target in another assay is hA2a/CHO (Homo sapiens (Human), UniProt P29274). Put plainly: cAMP inhibition assay in hA2a/CHO cells, 10 μM adenosine.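 Note: compounds added to cells 30 min ahead of adenosine, then a further 30 min at 37 °C with adenosine before cAMP detection.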 As to conditions: read-out: cAMP & FLIPR IC50 (nM) hA2a. The format is cell-based.
For a further assay, the target named is mA2a/CHO (Mus musculus (Mouse), UniProt Q60613). Put plainly: cAMP inhibition assay in mA2a/CHO cells, 10 μM adenosine.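 Note: compounds preincubated 30 min at 37 °C before the adenosine challenge, then 30 min further stimulation, readout after 60 min detection reagent incubation at room temperature in 384-well plates.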 The format is cell-based. As to conditions: read-out: cAMP & FLIPR IC50 (nM) mA2a.

Each structure is given as a SMILES string. Bounds are passed on as bounds.

As to `Cn1cc(-c2nc(CNC(=O)c3c(F)cccc3F)c(N)nc2-c2ccc(F)cc2)ccc1=O` [Example 88, N-((3-amino-5-(4-fluorophenyl)-6-(1-methyl-6-oxo-1,6-dihydropyridin-3-yl)pyrazin-2-yl)methyl)-2,6-difluorobenzamide], the concentration for half-maximal inhibition (IC50) was no less than 10000 nM against hA3/CHO; 2.4 nM at hA2a; 3170 nM on hA2b/CHO; 61 nM at hA2a/CHO; 272 nM on mA2a/CHO.

These data come from patent US10898481B2 (priority 2018, dated 2021).
